This is a selection; strong and weak results do not stand in their true shares. Activity calls are given as the source filed them. Calls follow the shape of the dose curve; as a rule, active = well fitted curve in the direction sought with a large enough effect; inconclusive = small, poorly fitted or top-dose-only effect, or another doubt; inactive = no such curve, though single readings can be large or run the other way.

We go through 100 compounds from PubChem BioAssay AID2288 (National Center for Advancing Translational Sciences (NCATS), 2010).

The nature of this assay: qHTS Assay for Modulators of miRNAs and/orActivators of miR-21.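 Also: % of control where 0% means no effect; miR-21 action dims this reporter so a rising signal means less miR-21 action.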 As to conditions: HeLa miR-21 FLuc reporter, luciferase, 48 h; at 38.3 µM (top of the series). In general terms: qHTS replaces the single test concentration by a dilution series.
In the case of `COc1ccc(N/C(=N/P(=O)(N2CCOCC2)N2CCOCC2)N2CCOCC2)cc1`, the activity change, positive = activation was inactive: -1.69%. `COc1cc(I)ccc1[As](=O)(O)O`: the activity change, positive = activation is inactive: 0.966%. Next, `COc1ccc2nc(NP(=O)(c3ccccc3)c3ccccc3)sc2c1`: inactive: 0.484%; `Cc1cc(=O)[nH]c(N[N+](=O)[O-])n1`: inactive: 0.13%; `CCN(CC)CCCOC(=O)C(O)(c1ccccc1)c1ccccc1`: inactive: -1.87%.

For `O=C(OC1CN2CCC1CC2)C12CC3CC(CC(C3)C1)C2` (stereo not given), the activity change, positive = activation was inactive: -14.2%. As to `Cc1c2c(nc3ccccc13)SC(C(Cl)Cl)C2` (stereo not given), the activity change, positive = activation is inactive: -25.6%. For the compound `Cc1cc(C)cc(OP(C)(N)=O)c1` (stereo not given), the activity change, positive = activation is inactive: 0.376%. Consider `COc1ccc(OP(C)(=O)Nc2cccc(F)c2)cc1` (stereo not given), for which the activity change, positive = activation was inactive: -1.48%. Next, `O=[N+]([O-])c1cc([N+](=O)[O-])c(-c2ccn[nH]2)s1`: inactive: 9.5%; `COc1ccccc1OP(C)(=O)Nc1cc(Cl)ccc1C` (stereo not given): inactive: -4.31%; `CC(C)NC(=O)NP(=O)(Oc1ccccc1)Oc1ccccc1`: inactive: -1.6%.

As for `CCN(CC)C(=S)SC(NC=O)C(Cl)(Cl)Cl` (stereo not given), the activity change, positive = activation is inactive: -0.266%. Next, `Cc1ccc(NP(C)(=O)Oc2ccccc2)c(C)c1` (stereo not given): inactive: -8.17%; `CC(C)c1ccc(OP(=O)(Nc2ccccn2)Oc2ccccc2F)cc1` (stereo not given): inactive: 8.12%; `COc1ccccc1OP(C)(=O)Nc1ccc(C)cc1` (stereo not given): inactive: -5.63%. The same measure for `ClCCSc1nnc(-c2cccnc2)o1`: inactive: -30.2%; for `CCOC(=O)c1ccc(NP(C)(=O)Oc2ccccc2)cc1` (stereo not given): inactive: -5.8%; for `Cc1ccc2nc3c(c(C)c2c1)CC(C(Cl)Cl)S3` (stereo not given): inactive: -50.7%.

Turning to `Cc1cccc(C)c1OP(C)(N)=O` (stereo not given), the activity change, positive = activation was inactive: -1.23%. With `Cc1ccc(OP(=O)(Nc2ccc([N+](=O)[O-])cn2)Oc2ccc(C)cc2)cc1`, the activity change, positive = activation was inactive: -4.04%.

Take `CC(C)(C)c1ccc(OP(C)(=O)Nc2ccc(SC(F)(F)F)cc2)cc1` (stereo not given): the activity change, positive = activation was inactive: -8.79%. Next, `C[As](=O)(O)c1cccc(C(=O)O)c1`: inactive: -0.549%; `O=[As](O)(c1ccc(O)cc1)c1ccccc1O`: inactive: -0.843%.

For the compound `O=[N+]([O-])c1ccc(Nc2ccc(Oc3ccc([N+](=O)[O-])cc3[N+](=O)[O-])cc2)c([N+](=O)[O-])c1`, the activity change, positive = activation is inactive: -1.1%. With `CP(=O)(Nc1ccccc1Br)Oc1ccccc1` (stereo not given), the activity change, positive = activation was inactive: -2.72%.

Consider `COc1ccccc1OP(C)(=O)Nc1ccccc1` (stereo not given), for which the activity change, positive = activation is inactive: -0.838%. Next, `O=P(Nc1ccccn1)(c1cccc2ccccc12)c1cccc2ccccc12`: inactive: -9.41%; `Cc1cc(SC(NC=O)C(Cl)(Cl)Cl)ncn1` (stereo not given): inactive: -3.23%.

`CCOC(=O)Nc1cccc([As](=O)(O)O)c1`: the activity change, positive = activation is inactive: -1.49%. Next, `CP(=S)(Nn1cnnc1)Oc1ccccc1` (stereo not given): inactive: -0.315%. The same measure for `Cc1cc(SC(NC(=O)c2ccccc2)C(Cl)(Cl)Cl)nc(C(C)C)n1` (stereo not given): inactive: -2.21%. For the compound `CCCCOc1ccc(C(=O)NCC2(N3CCCCC3)CCCCC2)cc1OC`, the activity change, positive = activation was inactive: 0.393%. Next, `CCOC(=O)Nc1ccc([As](=O)(O)O)c(O)c1`: inactive: 2.12%; `CP(=O)(Nc1ccccn1)Oc1ccc(Cl)cc1` (stereo not given): inactive: -6.31%; `CCC(C)N(CC(C)C)C(=S)SC(NC(C)=O)C(Cl)(Cl)Cl` (stereo not given): inactive: 29.7%.

Turning to `CCOC(=O)c1ccc(NP(C)(=O)Oc2ccc(OC)cc2)cc1` (stereo not given), the activity change, positive = activation is inactive: -9.75%. The same measure for `CCOC(=O)c1ccc(NC(=O)C(C)(CCl)SC)cc1` (stereo not given): inactive: -38.1%; for `CCOP(C)(=S)SCC(=O)NC(C)C(=O)O` (stereo not given): inactive: -0.229%; for `O=C(OC1CN2CCC1CC2)c1cccc([N+](=O)[O-])c1` (stereo not given): inactive: -0.734%. In the case of `O=C(Nc1ccncc1[N+](=O)[O-])c1ccc([N+](=O)[O-])cc1[N+](=O)[O-]`, the activity change, positive = activation was inactive: 25%. The same measure for `Cc1cc(C)cc(OP(C)(=O)Nc2ccc(SC(F)(F)F)cc2)c1` (stereo not given): inactive: 3.91%.

On to `O=C(COc1ccccc1)OC1CN2CCC1CC2` (stereo not given), for which the activity change, positive = activation was inactive: -3.37%.

Regarding `CP(=O)(NC(=O)Nc1ccccc1)Oc1ccccc1` (stereo not given), the activity change, positive = activation is inactive: -0.319%. Turning to `CCc1ccc(OP(C)(=O)N2CCN(c3ccc([N+](=O)[O-])cc3)CC2)cc1` (stereo not given), the activity change, positive = activation is inactive: 13%.

For the compound `CP(=O)(Oc1ccccc1)OC(c1ccccc1)C(F)(F)F` (stereo not given), the activity change, positive = activation is inactive: 3.16%. Next, `COP1(=S)c2c(C)nn(CCC#N)c2N=C(c2ccc(F)cc2)N1C` (stereo not given): inactive: -1.6%. As to `Cc1cccc(C)c1OP(C)(=O)Nc1ccc(SC(F)(F)F)cc1` (stereo not given), the activity change, positive = activation is inactive: 19.3%. The same measure for `CP(=O)(Nc1ccc(SC(F)(F)F)cc1)Oc1ccc(Cl)cc1` (stereo not given): inactive: 8.12%; for `Cc1nc2ccc3ccccc3c2s1.O=[N+]([O-])c1cc([N+](=O)[O-])c(O)c([N+](=O)[O-])c1`: inactive: -13%; for `O=[As](O)(c1ccccc1Br)c1ccccc1Br`: inactive: -4.92%. On to `CC(C)/C=N\N=C(\N)N[N+](=O)[O-]`, for which the activity change, positive = activation is inactive: -16.7%. The same measure for `CN(C(=O)Cc1ccc(Cl)c(Cl)c1)[C@@H]1CCCC[C@H]1N1CCCC1`: inactive: -8.6%; for `Clc1n[nH]nc1-c1nn[nH][15n]1`: inactive: -0.846%. For `CCOP(=O)(Nc1ccc(C)cn1)OCC`, the activity change, positive = activation is inactive: -0.523%.

Take `O=[N+]([O-])c1cc([N+](=O)[O-])c(-n2nnc3ccccc32)c([N+](=O)[O-])c1`: the activity change, positive = activation was inactive: 0.145%. `CCOP(=O)(NC(=NC(C)c1ccccc1)NC(C)c1ccccc1)OCC` (stereo not given): the activity change, positive = activation is inactive: -7.27%. As to `O=P1(Nc2ccccn2)COc2ccccc2OC1`, the activity change, positive = activation is inactive: 0.382%. Regarding `CCC1=CC2Cc3nc4ccc(Cl)cc4c(N)c3C(C1)C2` (stereo not given), the activity change, positive = activation was inactive: 21.1%. Turning to `Cc1ccc(OCC(=O)OC2CN3CCC2CC3)cc1` (stereo not given), the activity change, positive = activation is inactive: -1.77%. Next, `O=[As](O)(c1cccs1)c1cccs1`: inactive: 2.96%; `O=P1(Nc2ccc(Br)cn2)COc2ccccc2OC1`: inactive: 2.53%; `CCCOc1ccc(NP(C)(=O)Oc2ccc(Cl)cc2)cc1` (stereo not given): inactive: -7.86%. Next, `Nc1cccc([As](=O)(O)c2ccccc2)c1`: inactive: -5.9%; `CP(=O)(Nc1ccc(SC(F)(F)F)cc1)Oc1ccccc1` (stereo not given): inactive: 4.44%; `COc1ccccc1OP(C)(=O)Nc1c(C)cccc1C` (stereo not given): inactive: -2.53%. Next, `CN1CCCCC1COC(=O)C1(O)c2ccccc2CCc2ccccc21` (stereo not given): inactive: -5.98%; `O=P1(Nc2ncccn2)COc2ccccc2OC1`: inactive: -0.662%; `O=C(/C=C/c1ccccc1)OC1CN2CCC1CC2` (stereo not given): inactive: -5.09%. In the case of `CN(C)C1(CNC(=O)c2ccc(S(C)(=O)=O)cc2)CCCCC1`, the activity change, positive = activation is inactive: -2.94%. The same measure for `O=[N+]([O-])c1cc([N+](=O)[O-])c(Nc2nnnn2CCO)c([N+](=O)[O-])c1`: inactive: -6.67%; for `COc1cc(C2NCCC3(OCCO3)C2(C)C)cc(OC)c1OC.O=[N+]([O-])c1cc([N+](=O)[O-])c(O)c([N+](=O)[O-])c1` (stereo not given): inactive: -2.93%; for `CC1CCC(C(C)C)C(OP(=O)(Nc2ccccn2)c2ccccc2)C1` (stereo not given): inactive: 14.9%. Next, `Cc1ccc(C(=O)OC2CN3CCC2CC3)cc1` (stereo not given): inactive: -5.5%; `Cc1nn(-c2ccccc2)c2c1P(=O)(N1CCOCC1)N(C)C(c1ccccc1)=N2` (stereo not given): inactive: -4.19%. Next, `CC1=NCCc2c1[nH]c1ccccc21.O=[N+]([O-])c1cc([N+](=O)[O-])c(O)c([N+](=O)[O-])c1`: inactive: -8.7%; `O=[N+]([O-])c1ccc2c(c1)nnn2O`: inactive: 2.04%; `CCOP1(=S)c2c(C)nn(CCC#N)c2N=C(c2ccc(F)cc2)N1C` (stereo not given): inactive: -14.4%.

For `CN(C(=O)Cc1ccccc1)[C@@H]1CC[C@]2(CCCO2)C[C@H]1N1CCCC1`, the activity change, positive = activation was inactive: -0.0179%. The same measure for `NC(=O)Nc1ccc([As](=O)(O)O)cc1`: inactive: -5.46%; for `Nc1ccccc1[As](=O)(O)c1ccccc1`: inactive: -0.0727%. Next, `O=C(O)COc1ccc([As](=O)(O)O)cc1[N+](=O)[O-]`: inactive: 2.68%; `CS(=O)(=O)c1cc([N+](=O)[O-])c2no[n+]([O-])c2c1`: inactive: 7.56%. Regarding `O=P(Nc1nccs1)(Oc1ccccc1)Oc1ccccc1`, the activity change, positive = activation was inactive: 1.26%. Next, `O=P(Nc1nccs1)(c1ccccc1)c1nc2ccccc2s1` (stereo not given): inactive: 20%; `CCOP1(=S)c2c(C)nn(CCC#N)c2N=C(c2ccccc2F)N1C` (stereo not given): inactive: -5.6%; `CCOP(=O)(Nc1cccc2ccccc12)OCC`: inactive: -6.9%.

Regarding `Cc1ccc(C)c(NP(C)(=O)Oc2ccccc2)c1` (stereo not given), the activity change, positive = activation is inactive: -1.55%. Take `CCCOP(=S)(Nc1nc(N)cc(=O)[nH]1)OCCC`: the activity change, positive = activation was inactive: 2.05%. With `Cc1ccc(NCCc2c([N+](=O)[O-])cc([N+](=O)[O-])cc2[N+](=O)[O-])cc1`, the activity change, positive = activation is inactive: 0.875%. The same measure for `Nc1cccc2c([As](=O)(O)O)cccc12`: inactive: 0.179%.

For `Cc1cc(C)cc(OP(C)(=O)Nc2ccccn2)c1` (stereo not given), the activity change, positive = activation is inactive: 1.1%. With `CP(=O)(Nc1cccc(Br)c1)Oc1ccccc1` (stereo not given), the activity change, positive = activation was inactive: -2.49%. Next, `CCOC(=O)c1ccc(NP(C)(=O)Oc2cc(C)cc(C)c2)cc1` (stereo not given): inactive: 6.14%; `Cc1cc(C)cc(OP(C)(=O)Nc2ccc(C)cc2C)c1` (stereo not given): inactive: -2.64%; `Cc1cccc(OCC(=O)OC2CN3CCC2CC3)c1` (stereo not given): inactive: -4.16%. Next, `O=[As](O)(c1cccc(O)c1)c1cccc(O)c1`: inactive: 4.3%; `COc1ccccc1OP(C)(=O)Nc1cccc(Br)c1` (stereo not given): inactive: -1.33%; `CS(=O)(=O)c1ccc(Cl)c(NC(=O)COC(=O)C(O)(c2ccccc2)c2ccccc2)c1`: inactive: 4.65%.

`O=[As](O)(O)c1cccnc1`: the activity change, positive = activation is inactive: 1.98%.
